## Membrane permeability of cyclic peptides

Collected by the curators of CycPeptMPDB (Li et al. 2023) from Kelly et al. 2021, doi:10.1021/jacs.0c06115.

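Lipid, pH, incubation time, direction and concentration are not recorded in the data file. The list need not hold all peptides of the study. Entries at the database's floor value (log10 P of -10) are not listed.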

PAMPA is the parallel artificial membrane permeability assay, which has no cells and reads passive diffusion.
Permeability is in 10^-6 cm/s, converted from the database's log10 values; higher is more permeable.

For CC(=O)N[C@@H]1C(=O)N2CCC[C@H]2C(=O)N(C)[C@H](CC(C)C)C(=O)N[C@H](CC(C)C)C(=O)N[C@H](CC(C)C)C(=O)N[C@H](CC(C)C)C(=O)N[C@H](C)C(=O)N[C@@H](CC(C)C)C(=O)N2CCC[C@@H]2C(=O)O[C@@H]1C the data give PAMPA 0.034 × 10^-6 cm/s.
For CC(=O)N1CCC[C@H]1C(=O)N(C)[C@@H](CC(C)C)C(=O)N[C@@H]1C(=O)N[C@@H](CC(C)C)C(=O)N[C@@H](CC(C)C)C(=O)N[C@H](CC(C)C)C(=O)N(C)[C@H](C)C(=O)N[C@H](CC(C)C)C(=O)N2CCC[C@@H]2C(=O)O[C@@H]1C the data give PAMPA 0.14 × 10^-6 cm/s.
For CC(=O)N1CCC[C@@H]1C(=O)N(C)[C@@H](CC(C)C)C(=O)N[C@@H]1C(=O)N(C)[C@H](CC(C)C)C(=O)N(C)[C@H](CC(C)C)C(=O)N(C)[C@H](CC(C)C)C(=O)N(C)[C@@H](C)C(=O)N[C@@H](CC(C)C)C(=O)N2CCC[C@H]2C(=O)O[C@@H]1C the data give PAMPA 3.5 × 10^-6 cm/s.
For CC(=O)N1CCC[C@@H]1C(=O)N(C)[C@H](CC(C)C)C(=O)N[C@@H]1C(=O)N[C@H](CC(C)C)C(=O)N[C@H](CC(C)C)C(=O)N[C@H](CC(C)C)C(=O)N(C)[C@@H](C)C(=O)N[C@@H](CC(C)C)C(=O)N2CCC[C@H]2C(=O)O[C@@H]1C the data give PAMPA 0.81 × 10^-6 cm/s.
For CC(=O)N1CCC[C@H]1C(=O)N(C)[C@@H](CC(C)C)C(=O)N[C@@H]1C(=O)N(C)[C@@H](CC(C)C)C(=O)N[C@@H](CC(C)C)C(=O)N(C)[C@@H](CC(C)C)C(=O)N(C)[C@H](C)C(=O)N[C@H](CC(C)C)C(=O)N2CCC[C@H]2C(=O)O[C@@H]1C the data give PAMPA 1 × 10^-6 cm/s.
For CC(=O)N1CCC[C@@H]1C(=O)N(C)[C@@H](CC(C)C)C(=O)N[C@@H]1C(=O)N[C@H](CC(C)C)C(=O)N[C@H](CC(C)C)C(=O)N[C@@H](CC(C)C)C(=O)N(C)[C@H](C)C(=O)N[C@H](CC(C)C)C(=O)N2CCC[C@H]2C(=O)O[C@@H]1C the data give PAMPA 1 × 10^-6 cm/s.
For CC(=O)N1CCC[C@H]1C(=O)N(C)[C@@H](CC(C)C)C(=O)N[C@@H]1C(=O)N[C@H](CC(C)C)C(=O)N(C)[C@@H](CC(C)C)C(=O)N[C@H](CC(C)C)C(=O)N[C@@H](C)C(=O)N[C@H](CC(C)C)C(=O)N2CCC[C@H]2C(=O)O[C@@H]1C the data give PAMPA 1.2 × 10^-6 cm/s.
For CC(=O)N1CCC[C@H]1C(=O)N[C@@H]1C(=O)N[C@H](CC(C)C)C(=O)N(C)[C@H](CC(C)C)C(=O)N[C@H](CC(C)C)C(=O)N[C@H](CC(C)C)C(=O)N(C)[C@H](C)C(=O)N[C@@H](CC(C)C)C(=O)N2CCC[C@@H]2C(=O)O[C@@H]1C the data give PAMPA 13 × 10^-6 cm/s.
For CC(=O)N1CCC[C@H]1C(=O)N[C@@H]1C(=O)N[C@H](CC(C)C)C(=O)N[C@@H](CC(C)C)C(=O)N(C)[C@@H](CC(C)C)C(=O)N[C@H](CC(C)C)C(=O)N(C)[C@H](C)C(=O)N[C@@H](CC(C)C)C(=O)N2CCC[C@@H]2C(=O)O[C@@H]1C the data give PAMPA 5.2 × 10^-6 cm/s.
For CC(=O)N1CCC[C@H]1C(=O)N[C@@H]1C(=O)N[C@H](CC(C)C)C(=O)N[C@@H](CC(C)C)C(=O)N[C@@H](CC(C)C)C(=O)N[C@@H](CC(C)C)C(=O)N(C)[C@@H](C)C(=O)N[C@@H](CC(C)C)C(=O)N2CCC[C@@H]2C(=O)O[C@@H]1C the data give PAMPA 0.23 × 10^-6 cm/s.
For CC(=O)N1CCC[C@@H]1C(=O)N(C)[C@H](CC(C)C)C(=O)N[C@@H]1C(=O)N(C)[C@H](CC(C)C)C(=O)N[C@H](CC(C)C)C(=O)N(C)[C@@H](CC(C)C)C(=O)N(C)[C@@H](C)C(=O)N[C@@H](CC(C)C)C(=O)N2CCC[C@@H]2C(=O)O[C@@H]1C the data give PAMPA 8.3 × 10^-6 cm/s.
For CC(=O)N1CCC[C@@H]1C(=O)N(C)[C@@H](CC(C)C)C(=O)N[C@@H]1C(=O)N[C@@H](CC(C)C)C(=O)N(C)[C@H](CC(C)C)C(=O)N[C@H](CC(C)C)C(=O)N(C)[C@H](C)C(=O)N[C@H](CC(C)C)C(=O)N2CCC[C@H]2C(=O)O[C@@H]1C the data give PAMPA 0.89 × 10^-6 cm/s.
For CC(=O)N1CCC[C@H]1C(=O)N[C@@H]1C(=O)N(C)[C@H](CC(C)C)C(=O)N[C@H](CC(C)C)C(=O)N[C@H](CC(C)C)C(=O)N(C)[C@@H](CC(C)C)C(=O)N[C@H](C)C(=O)N[C@@H](CC(C)C)C(=O)N2CCC[C@@H]2C(=O)O[C@@H]1C the data give PAMPA 0.68 × 10^-6 cm/s.
For CC(=O)N1CCC[C@@H]1C(=O)N(C)[C@@H](CC(C)C)C(=O)N[C@@H]1C(=O)N[C@H](CC(C)C)C(=O)N(C)[C@H](CC(C)C)C(=O)N[C@@H](CC(C)C)C(=O)N(C)[C@@H](C)C(=O)N[C@@H](CC(C)C)C(=O)N2CCC[C@@H]2C(=O)O[C@@H]1C the data give PAMPA 5.2 × 10^-6 cm/s.
For CC(=O)N1CCC[C@H]1C(=O)N[C@@H]1C(=O)N[C@H](CC(C)C)C(=O)N(C)[C@H](CC(C)C)C(=O)N[C@H](CC(C)C)C(=O)N[C@H](CC(C)C)C(=O)N(C)[C@@H](C)C(=O)N[C@@H](CC(C)C)C(=O)N2CCC[C@@H]2C(=O)O[C@@H]1C the data give PAMPA 13 × 10^-6 cm/s.
For CC(=O)N1CCC[C@@H]1C(=O)N(C)[C@@H](CC(C)C)C(=O)N[C@@H]1C(=O)N[C@@H](CC(C)C)C(=O)N(C)[C@H](CC(C)C)C(=O)N[C@@H](CC(C)C)C(=O)N[C@@H](C)C(=O)N[C@H](CC(C)C)C(=O)N2CCC[C@H]2C(=O)O[C@@H]1C the data give PAMPA 0.44 × 10^-6 cm/s.
For CC(=O)N1CCC[C@@H]1C(=O)N(C)[C@@H](CC(C)C)C(=O)N[C@@H]1C(=O)N(C)[C@H](CC(C)C)C(=O)N[C@H](CC(C)C)C(=O)N(C)[C@@H](CC(C)C)C(=O)N(C)[C@@H](C)C(=O)N[C@@H](CC(C)C)C(=O)N2CCC[C@H]2C(=O)O[C@@H]1C the data give PAMPA 4.4 × 10^-6 cm/s.
For CC(=O)N1CCC[C@H]1C(=O)N(C)[C@@H](CC(C)C)C(=O)N[C@@H]1C(=O)N(C)[C@@H](CC(C)C)C(=O)N(C)[C@H](CC(C)C)C(=O)N(C)[C@H](CC(C)C)C(=O)N(C)[C@@H](C)C(=O)N[C@H](CC(C)C)C(=O)N2CCC[C@H]2C(=O)O[C@@H]1C the data give PAMPA 5 × 10^-6 cm/s.
For CC(=O)N1CCC[C@@H]1C(=O)N(C)[C@@H](CC(C)C)C(=O)N[C@@H]1C(=O)N[C@H](CC(C)C)C(=O)N[C@@H](CC(C)C)C(=O)N[C@@H](CC(C)C)C(=O)N(C)[C@@H](C)C(=O)N[C@@H](CC(C)C)C(=O)N2CCC[C@@H]2C(=O)O[C@@H]1C the data give PAMPA 1.2 × 10^-6 cm/s.